Paper PMC8919384 (ACS Medicinal Chemistry Letters, 2022)

Tests used:
[1] = system: OGD/R-treated HT22 cells; settings: 10 μM pretreatment 4 h
[2] = system: OGD/R-treated HT22 cells

Structure (SMILES): Cn1cc(-c2cnc(N)n3nc(-c4ccco4)nc23)ccc1=O [1a]
- antiapoptotic Bcl-2 staining (immunofluorescence) [1]: enhanced
- mRNA expression of apoptosis markers (p53, Bax, Bcl-2), qRT-PCR [1]: consistent with the protein expression
- COX-2 immunofluorescence staining ([2]; 10 μM pretreatment 4 h): lack of COX-2
- mRNA expression of inflammation markers Nos2, Vcam-1 and II1b, qRT-PCR ([2]; 10 μM pretreatment 4 h): consistent with the protein expression
- caspase-1 (p20), IL-18 and IL-1β expression (western blot) ([2]; 1–10 μM pretreatment 4 h): reduced
